Measured values taken from US7381537B2, “Use of inhibitors of glutaminyl cyclases for treatment and prevention of disease” (Probiodrug AG, priority 2003, dated 2008).

Protein sequences, listed by entry. Tags and fused reporters are not part of them. Residues count along the entry.
UniProt O81226, 1-288: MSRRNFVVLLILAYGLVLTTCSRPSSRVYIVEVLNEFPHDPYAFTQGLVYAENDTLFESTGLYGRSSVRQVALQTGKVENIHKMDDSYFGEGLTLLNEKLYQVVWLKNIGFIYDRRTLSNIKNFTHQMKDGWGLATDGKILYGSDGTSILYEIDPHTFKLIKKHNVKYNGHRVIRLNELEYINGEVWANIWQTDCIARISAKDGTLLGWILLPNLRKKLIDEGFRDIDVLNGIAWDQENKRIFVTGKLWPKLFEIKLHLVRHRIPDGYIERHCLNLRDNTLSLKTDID

How the values were obtained:
Papaya QC [1] = target: T1, Papaya QC (Carica papaya, UniProt O81226); assay: Continuous spectrophotometric assay of QC substrate conversion (glutamate dehydrogenase coupled), papaya QC; conditions: for Ki* (for substrate inhibition) / Ki: n.i. = no inhibition; for Ki: substrate inhibition
Papaya QC [2] = target: T1, Papaya QC; assay: Qualitative substrate conversion by MALDI-TOF mass spectrometry, papaya QC
Papaya QC [3] = target: T1, Papaya QC; assay: Fluorometric assay with pyroglutamyl aminopeptidase as auxiliary enzyme, papaya QC (incl. pH-dependence of Gln-βNA and Glu-βNA cyclization); conditions: for pKa-value from pH-dependence of conversion, first dissociating group / pKa-value from pH-dependence of conversion, second dissociating group: first-order rate-law conditions, 30° C.
[4] = Table 1, physiological substrates
[5] = Table 6, influence of substrate length
[6] = 0.05 M Tricine-NaOH, pH 8.0, 0.5 M KCl

Compound: CC(C)(C)OC(=O)C(N)CCC(N)=O (centres unmarked)
- kcat/KM (Papaya QC [1]; Table 5): 222000 ± 6000 M⁻¹ s⁻¹
- Ki* (for substrate inhibition) (Papaya QC [1]; Table 5): n.i.

Compound: CC(C)C[C@H](NC(=O)[C@H](CCCNC(=N)N)NC(=O)[C@H](CCCCN)NC(=O)[C@H](Cc1ccccc1)NC(=O)C[C@@H](N)CCC(N)=O)C(=O)N[C@@H](C)C(N)=O
- Km (Papaya QC [1]; text b245): 3100 µM
- kcat/KM value (Papaya QC [1]; text b245): 1400 ± 100 M⁻¹ s⁻¹

Compound: CSCC[C@H](NC(=O)[C@H](Cc1c[nH]c2ccccc12)NC(=O)CNC(=O)[C@H](Cc1ccc(O)cc1)NC(=O)[C@H](C)NC(=O)[C@H](CCC(=O)O)NC(=O)[C@H](CCC(=O)O)NC(=O)[C@H](CCC(=O)O)NC(=O)[C@H](CCC(=O)O)NC(=O)[C@H](CCC(=O)O)NC(=O)[C@H](CC(C)C)NC(=O)[C@H](Cc1c[nH]c2ccccc12)NC(=O)[C@@H]1CCCN1C(=O)CNC(=O)[C@@H](N)CCC(N)=O)C(=O)N[C@@H](CC(=O)O)C(=O)N[C@@H](Cc1ccccc1)C(N)=O
- Km (Papaya QC [1]; [4]): 34 µM

Compound: C[C@H](NC(=O)[C@H](C)NC(=O)[C@H](C)NC(=O)[C@H](C)NC(=O)[C@@H](N)CCC(N)=O)C(N)=O
- kcat/KM (Papaya QC [1]; [5]): 379000 ± 10000 M⁻¹ s⁻¹

Compound: C[C@H](NC(=O)[C@H](C)NC(=O)[C@H](CO)NC(=O)[C@H](C)NC(=O)[C@H](C)NC(=O)[C@@H](N)CCC(N)=O)C(N)=O
- kcat/KM (Papaya QC [1]; [5]): 363000 ± 5000 M⁻¹ s⁻¹

Compound: NC(=O)CCC(N)C(N)=O (centres unmarked)
- Ki (Papaya QC [1]; [6]): n.i.
- Ki (Papaya QC [1]; 0.05 M Tricine-NaOH, pH 8.08): n.i.
- Ki* (for substrate inhibition) (Papaya QC [1]; Table 5): n.i.

Compound: NC(=O)CC[C@H](N)C(=O)NCC(=O)O
- Ki* (for substrate inhibition) (Papaya QC [1]; Table 5): n.i.

Compound: C[C@H](NC(=O)[C@H](C)NC(=O)[C@@H](N)CCC(N)=O)C(N)=O [H-Gln-Ala-Ala-NH2]
- kcat/KM (Papaya QC [1]; [5]): 507000 ± 12000 M⁻¹ s⁻¹

Compound: C[C@H](NC(=O)[C@@H](N)CCC(N)=O)C(N)=O [H-Gln-Ala-NH2]
- kcat/KM (Papaya QC [1]; [5]): 296000 ± 15000 M⁻¹ s⁻¹

Compound: C[C@H](NC(=O)[C@@H](N)CCC(N)=O)C(=O)O [H-Gln-Ala-OH]
- kcat/KM (Papaya QC [1]; [6]): 480000 ± 12000 M⁻¹ s⁻¹
- Ki (Papaya QC [1]; [6]): n.i.
- kcat/KM (Papaya QC [1]; 0.05 M Tricine-NaOH, pH 8.08): 509000 ± 19000 M⁻¹ s⁻¹
- Ki (Papaya QC [1]; 0.05 M Tricine-NaOH, pH 8.08): n.i.
- kcat/KM (Papaya QC [1]; Table 5): 442000 ± 16000 M⁻¹ s⁻¹
- Ki* (for substrate inhibition) (Papaya QC [1]; Table 5): n.i.

Compound: NC(=O)CC[C@H](NC(=O)[C@@H](N)CCC(N)=O)C(=O)O [H-Gln-Gln-OH]
- kcat/KM (Papaya QC [1]; Table 5): 982000 ± 51000 M⁻¹ s⁻¹
- Ki* (for substrate inhibition) (Papaya QC [1]; Table 5): n.i.

Compound: NC(=O)CC[C@H](N)C(=O)N[C@@H](CCC(=O)O)C(=O)O [H-Gln-Glu-OH]
- kcat/KM (Papaya QC [1]; [6]): 472000 ± 12000 M⁻¹ s⁻¹
- Ki (Papaya QC [1]; [6]): n.i.
- kcat/KM (Papaya QC [1]; 0.05 M Tricine-NaOH, pH 8.08): 459000 ± 18000 M⁻¹ s⁻¹
- Ki (Papaya QC [1]; 0.05 M Tricine-NaOH, pH 8.08): n.i.
- kcat/KM (Papaya QC [1]; Table 5): 475000 ± 17000 M⁻¹ s⁻¹
- Ki* (for substrate inhibition) (Papaya QC [1]; Table 5): n.i.

Compound: CC(C)C[C@H](NC(=O)[C@H](CCCNC(=N)N)NC(=O)[C@H](CCCCNC(=O)[C@@H](N)CCC(N)=O)NC(=O)[C@@H](N)CCC(N)=O)C(=O)N[C@@H](C)C(N)=O [H-Gln-Lys(Gln)-Arg-Leu-Ala-NH2]
- substrate conversion (cyclization) by papaya QC (Papaya QC [2]): converted

Compound: NC(=O)CC[C@H](N)C(=O)N[C@@H](Cc1ccc(O)cc1)C(=O)O [H-Gln-Tyr-OH]
- Ki* (for substrate inhibition) (Papaya QC [1]; Table 5): n.i.

Compound: CC(C)[C@H](NC(=O)[C@@H](N)CCC(N)=O)C(=O)O [H-Gln-Val-OH]
- Ki* (for substrate inhibition) (Papaya QC [1]; Table 5): n.i.

Compound: COC(=O)CC[C@H](N)C(=O)N[C@@H](Cc1ccccc1)C(=O)N[C@@H](CCCCN)C(=O)N[C@@H](CCCNC(=N)N)C(=O)N[C@@H](CC(C)C)C(=O)N[C@@H](C)C(N)=O [H-Glu(OMe)-Phe-Lys-Arg-Leu-Ala-NH2]
- inhibition of papaya QC by the peptide (Papaya QC [3]; H-Gln-AMC as substrate): not inhibited

Compound: NC(=O)CC[C@H](N)C(=O)N[C@@H](CCC(=O)O)C(=O)N1CCC[C@H]1C(N)=O [[Gln^1]-FPP]
- Km (Papaya QC [1]; [4]): 232 µM
- kcat/KM (Papaya QC [1]; [4]): 140000 ± 4000 M⁻¹ s⁻¹

Compound: H-Gln(NMe)-Phe-Lys-Ala-Glu-NH2
- substrate conversion (cyclization) by papaya QC (Papaya QC [2]): converted into a pyroglutamyl residue

Compound: H-Gln-AMC
- kcat/KM (Papaya QC [1]; Table 5): 938000 ± 13000 M⁻¹ s⁻¹

Compound: H-Gln-OH
- kcat/KM (Papaya QC [1]; Table 5): 230 ± 100 M⁻¹ s⁻¹

Compound: H-Gln-cyclo(Nε-Lys-Arg-Pro-Ala-Gly-Phe)
- kcat/KM-value (Papaya QC [1]; text b244): 6200 ± 150 M⁻¹ s⁻¹

Compound: H-Gln-βNA
- pKa-value from pH-dependence of conversion, first dissociating group (Papaya QC [3]): 6.91
- pKa-value from pH-dependence of conversion, second dissociating group (Papaya QC [3]): 9.5
- kcat/KM (Papaya QC [1]; [6]): 1.475e+06 ± 70000 M⁻¹ s⁻¹
- kcat/KM (Papaya QC [1]; 0.05 M Tricine-NaOH, pH 8.08): 1.356e+06 ± 50000 M⁻¹ s⁻¹
- kcat/KM (Papaya QC [1]; Table 5): 1.353e+06 ± 70000 M⁻¹ s⁻¹

Compound: H-Glu-βNA
- pKa-value from pH-dependence of conversion, first dissociating group (Papaya QC [3]): 4.6
- pKa-value from pH-dependence of conversion, second dissociating group (Papaya QC [3]): 7.55
